Biological target: T1, histamine-3 receptor (Rattus norvegicus, UniProt Q9QYN8)
T1 construct: Rat cortical membranes (12 mg wet weight/tube) were incubated with; from tissue; host or cells: male Sprague-Dawley rat brain cortex membranes
Test: Histamine-3 receptor binding, displacement of (3H)-N-α-methylhistamine from rat cortical membranes
Settings: male Sprague-Dawley rat brain cortical membranes; (3H)-N-α-methylhistamine ~0.6 nM; 30 minutes at 25° C.; Cheng-Prusoff

Chains of the proteins cited; added tags and fusions are not shown. Lines headed by an entry give the natural chain unless they say otherwise; changes in a name come on top.
UniProt Q9QYN8: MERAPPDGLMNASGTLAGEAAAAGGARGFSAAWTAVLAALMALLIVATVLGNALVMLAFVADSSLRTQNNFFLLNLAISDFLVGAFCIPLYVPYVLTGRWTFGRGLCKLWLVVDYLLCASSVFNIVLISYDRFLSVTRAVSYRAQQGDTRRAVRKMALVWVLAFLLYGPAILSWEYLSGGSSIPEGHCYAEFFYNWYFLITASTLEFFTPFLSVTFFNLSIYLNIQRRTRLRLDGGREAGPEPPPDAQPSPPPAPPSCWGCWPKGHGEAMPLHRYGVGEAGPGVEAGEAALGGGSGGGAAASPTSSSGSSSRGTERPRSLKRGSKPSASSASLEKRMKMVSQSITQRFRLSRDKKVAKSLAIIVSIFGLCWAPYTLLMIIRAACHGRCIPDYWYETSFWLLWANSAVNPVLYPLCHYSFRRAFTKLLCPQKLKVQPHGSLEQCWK

C[C@@H]1CC[C@@H](C)N1CCCOc1ccc(-c2ccc(C(=O)N3[C@H](C)CC[C@H]3C)cc2)cc1 [Example 6, (2R,5R)-1-[(4′-{3-[(2R,5R)-2,5-dimethylpyrrolidinyl]propoxy}[1,1′-biphenyl]-4-yl)carbonyl]-2,5-dimethylpyrrolidine]
Ki: 4.2 nM
